# Measurements reported in patent US12023390B2, “Isomerically pure 18F-labelled tetrahydrofolates” (MERCK PATENT GMBH, priority 2017, dated 2024).
# Tested on: KB tumor xenografts
# Conditions: for excretion pathway: concluded from biodistribution and PET imaging results
"PET/CT: salivary glands (scans 1 h, 2 h, 3 h p.i.)",Substance,excretion pathway,"PET/CT: kidneys (scans 1 h, 2 h, 3 h p.i.)","PET/CT: radioactivity accumulation in the liver (scans 1 h, 2 h, 3 h p.i.)"
–,6R-3′-aza-2′-[^18F]fluoro-5-MTHF [6R-[^18F]1],excreted mainly via the hepatobiliary pathway,"clearly visualized 1 h p.i. with 6R-[^18F]1, but nearly invisible at 3 h p.i.",Radioactivity accumulation in the liver was mainly observed
high radioactivity uptake,6S-3′-aza-2′-[^18F]fluoro-5-MTHF [6S-[^18F]1],excreted preferably via the renal pathway,high kidney accumulation,–
